# Test system: Mus musculus
# Test: Analgesic activity in morphine-induced male Swiss mouse assessed as latency of tail administered subcutaneously pretreated with compound for 30 mins followed by morphine treatment and measured after 30 to 120 mins by tail-flick test
# Conditions: dose 0.1-10 mg/kg, route sc
smiles,measurement,value
C=CCN1CC[C@]23c4c5ccc(O)c4O[C@H]2[C@@]2(O)CC[C@@]3(C[C@@H]2[C@](C)(O)C(F)(F)F)[C@H]1C5,Activity,Dose-dependent-effect

# Reference: ChEMBL document CHEMBL6120995, “Orvinol-based opioid receptor antagonist fluorinated at C(20)-pharmacophore” (2025)
